Test system: caspase-3 activation (DEVDase activity)
Assay: dATP-dependent Cyt c-induced caspase-3 (DEVDase) activation in cell-free cytosolic extracts of HepG2 cells
Type: biochemical, human
Conditions: protein 7 μM with dATP 1 mM, no exogenous cyt-c, up to 2 h
Procedure: Peptides in the concentration of 750 μM were added to the cell extracts 15 min before the cytochrome c addition. Caspase activation was monitored by the cleavage of caspase-3-specific fluorogenic substrate DEVD-AMC.
HepG2, human hepatocarcinoma cells and human monoblastoma cell line U937 originated from American Type Culture Collection. Cell extracts were prepared by lysing cells in a hypotonic extraction buffer. To obtain the cytosolic S-100 fraction, the cell lysate was centrifuged for 1 h at 100,000×g. Extracts were either used immediately or frozen at −70° C. for later use.
Cell-free reactions were typically set up in 13-μl reaction volumes. […] For 13-μl scale reactions, 10 μl of cell extract (˜2-4 mg/ml, as determined by the Bradford assay) were supplemented with 1 μl of dATP, 1 μl of Cyt c and/or AFP solutions in reaction buffer to receive necessary final concentration of reagents. […]
At the end of a caspase activation reaction, extract aliquots (5 μl) were supplemented with fluorogenic substrate DEVD-AMC (3 mM) and then incubated for definite time intervals (0.5-1 h) at 37° C. Reactions were terminated by dilution with addition of 2.0 ml of ice-cold 0.2 mM sodium phosphate buffer, pH 7.5, followed by a measurement of fluorescence with a Perkin Elmer MPF-44A (λexc=365 nm and λem=440 nm ) fluorometer. […]

HSA: Human serum albumin, added in equivalent amount as control protein [reference compound]
Induction of caspase-3-specific DEVDase activity in S100 cytosolic extract (in words): no effect

Source: patent publication US7446095B2, “Peptides modulating caspase activation” (priority 2002, dated 2008)
